Experimental data from PubChem BioAssay AID686952 (The Scripps Research Institute Molecular Screening Center, 2013).
The entries are a selection whose mix differs from that of the whole data set. Activity calls are given as the source filed them.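 How the source made its calls: active means activation above the all-compound mean plus 3 SD, ignoring values outside control-based bounds (cut at about 4.8% in these data); inactive means the rest.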

Experiment: apparent activators from fluorescence artefacts, no enzyme – biochemical, fluorescence intensity, high throughput, artefact control for kallikrein-7 zymogen activator project (AID 686952);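 further: value is the 4 h activation minus the activation read at time zero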
Settings: EDANS-DABCYL substrate fluorescence interference, 4 h, at 7 µM, stronger effect = higher value, solvent 0%, active enzyme control 100%

Compound	activation
Nc1cccc2ccc([As](=O)(O)O)cc12	active: 23.4%
